{
  "sequences": {"note": "The chains behind the UniProt entries cited, without tags or fusion partners.", "UniProt P21554, whole entry": "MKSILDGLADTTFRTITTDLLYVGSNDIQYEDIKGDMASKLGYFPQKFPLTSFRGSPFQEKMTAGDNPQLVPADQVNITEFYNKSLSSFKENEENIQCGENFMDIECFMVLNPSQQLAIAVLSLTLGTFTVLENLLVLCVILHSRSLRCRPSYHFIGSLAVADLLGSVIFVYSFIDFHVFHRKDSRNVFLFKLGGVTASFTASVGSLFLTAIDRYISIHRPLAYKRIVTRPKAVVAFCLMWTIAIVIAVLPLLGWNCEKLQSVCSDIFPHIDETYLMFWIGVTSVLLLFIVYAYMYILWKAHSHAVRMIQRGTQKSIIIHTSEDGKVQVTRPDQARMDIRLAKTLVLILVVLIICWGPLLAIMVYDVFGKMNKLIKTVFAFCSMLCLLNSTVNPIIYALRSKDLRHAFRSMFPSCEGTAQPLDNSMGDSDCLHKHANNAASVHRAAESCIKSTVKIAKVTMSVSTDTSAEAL"},
  "source": "ChEMBL document CHEMBL4152361",
  "about": "“Synthesis of oxidative metabolites of CRA13 and their analogs: Identification of CRA13 active metabolites and analogs thereof with selective CB2R affinity” (Bioorg Med Chem, 2018)",
  "molecular_target": "Cannabinoid receptor 1 (Homo sapiens, UniProt P21554)",
  "assay": "Displacement of [3H]SR141716A from membrane bound human CB1 receptor after 1 hr by beta scintillation counting method",
  "data": [
    {"smiles": "CCCCCOc1ccc(C(=O)c2cccc3ccccc23)c2ccccc12", "values": [
      {"measurement": "IC50", "result": 1580, "unit": "nM"}
    ]}
  ]
}
